These results are taken from patent US7445920B2, “Member of the lysyl oxidase gene family” (Wyeth, priority 2000, dated 2008).

Protein sequences, listed by entry. Tags and fused reporters are not part of them.
UniProt Q92731, whole entry: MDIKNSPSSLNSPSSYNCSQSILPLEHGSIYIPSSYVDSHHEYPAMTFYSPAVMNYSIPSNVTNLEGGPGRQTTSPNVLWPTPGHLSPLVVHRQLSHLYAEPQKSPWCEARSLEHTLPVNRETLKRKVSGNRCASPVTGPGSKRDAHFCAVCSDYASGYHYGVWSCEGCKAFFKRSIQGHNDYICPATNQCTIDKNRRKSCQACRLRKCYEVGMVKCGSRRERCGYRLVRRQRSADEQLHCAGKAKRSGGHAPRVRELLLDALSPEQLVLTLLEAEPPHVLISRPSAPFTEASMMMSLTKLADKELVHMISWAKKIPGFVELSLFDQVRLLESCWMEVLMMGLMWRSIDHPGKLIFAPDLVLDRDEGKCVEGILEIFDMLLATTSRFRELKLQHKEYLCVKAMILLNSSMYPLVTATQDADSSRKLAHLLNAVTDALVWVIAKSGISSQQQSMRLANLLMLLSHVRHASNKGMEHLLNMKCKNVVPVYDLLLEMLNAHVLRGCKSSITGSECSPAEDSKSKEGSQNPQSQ

Assay [1] deals with T1, ERβ (Homo sapiens, UniProt Q92731). As to the kind of experiment: Differential display of RNA from HUVEC expressing human ERβ (Ad5ERβ). Particulars: 100 nM 17β-estradiol vs DMSO vehicle; HUVEC with Ad5ERβ; 30 U/ml IL-1β.
Assay [2] addresses T1, ERβ. Description: EER-7 mRNA expression (Northern blot) in HUVEC infected with adenovirus expressing human ERβ. It is filed as cell-based. Also noted: replication-defective adenovirus expressing human full length wild-type ERα (Ad5Eα) or ERβ (Ad5ERβ); expressed in transfected cells; host or cells: HUVEC infected with replication-defective adenovirus Ad5ERβ, MOI about 300. Particulars: HUVEC cells expressing human ERβ, FIG. 3.

As for `C[C@]12CC[C@@H]3c4ccc(O)cc4CC[C@H]3[C@@H]1CC[C@@H]2O` [17β-estradiol], the “Induction of band #7 (EER-7 fragment, approx. 320 bp) in differential display” value at ERβ [1] is “very strong induction”. In addition, on ERβ [2], the “EER-7 expression through the ERβ receptor” value was “stimulated EER-7 expression”.
